Reference: ChEMBL document CHEMBL5506020 (J Med Chem, 2024)
pIC50, pKd: −log10 of the molar value.

Chains of the proteins cited; added tags and fusions are not shown.
UniProt Q09472, whole entry: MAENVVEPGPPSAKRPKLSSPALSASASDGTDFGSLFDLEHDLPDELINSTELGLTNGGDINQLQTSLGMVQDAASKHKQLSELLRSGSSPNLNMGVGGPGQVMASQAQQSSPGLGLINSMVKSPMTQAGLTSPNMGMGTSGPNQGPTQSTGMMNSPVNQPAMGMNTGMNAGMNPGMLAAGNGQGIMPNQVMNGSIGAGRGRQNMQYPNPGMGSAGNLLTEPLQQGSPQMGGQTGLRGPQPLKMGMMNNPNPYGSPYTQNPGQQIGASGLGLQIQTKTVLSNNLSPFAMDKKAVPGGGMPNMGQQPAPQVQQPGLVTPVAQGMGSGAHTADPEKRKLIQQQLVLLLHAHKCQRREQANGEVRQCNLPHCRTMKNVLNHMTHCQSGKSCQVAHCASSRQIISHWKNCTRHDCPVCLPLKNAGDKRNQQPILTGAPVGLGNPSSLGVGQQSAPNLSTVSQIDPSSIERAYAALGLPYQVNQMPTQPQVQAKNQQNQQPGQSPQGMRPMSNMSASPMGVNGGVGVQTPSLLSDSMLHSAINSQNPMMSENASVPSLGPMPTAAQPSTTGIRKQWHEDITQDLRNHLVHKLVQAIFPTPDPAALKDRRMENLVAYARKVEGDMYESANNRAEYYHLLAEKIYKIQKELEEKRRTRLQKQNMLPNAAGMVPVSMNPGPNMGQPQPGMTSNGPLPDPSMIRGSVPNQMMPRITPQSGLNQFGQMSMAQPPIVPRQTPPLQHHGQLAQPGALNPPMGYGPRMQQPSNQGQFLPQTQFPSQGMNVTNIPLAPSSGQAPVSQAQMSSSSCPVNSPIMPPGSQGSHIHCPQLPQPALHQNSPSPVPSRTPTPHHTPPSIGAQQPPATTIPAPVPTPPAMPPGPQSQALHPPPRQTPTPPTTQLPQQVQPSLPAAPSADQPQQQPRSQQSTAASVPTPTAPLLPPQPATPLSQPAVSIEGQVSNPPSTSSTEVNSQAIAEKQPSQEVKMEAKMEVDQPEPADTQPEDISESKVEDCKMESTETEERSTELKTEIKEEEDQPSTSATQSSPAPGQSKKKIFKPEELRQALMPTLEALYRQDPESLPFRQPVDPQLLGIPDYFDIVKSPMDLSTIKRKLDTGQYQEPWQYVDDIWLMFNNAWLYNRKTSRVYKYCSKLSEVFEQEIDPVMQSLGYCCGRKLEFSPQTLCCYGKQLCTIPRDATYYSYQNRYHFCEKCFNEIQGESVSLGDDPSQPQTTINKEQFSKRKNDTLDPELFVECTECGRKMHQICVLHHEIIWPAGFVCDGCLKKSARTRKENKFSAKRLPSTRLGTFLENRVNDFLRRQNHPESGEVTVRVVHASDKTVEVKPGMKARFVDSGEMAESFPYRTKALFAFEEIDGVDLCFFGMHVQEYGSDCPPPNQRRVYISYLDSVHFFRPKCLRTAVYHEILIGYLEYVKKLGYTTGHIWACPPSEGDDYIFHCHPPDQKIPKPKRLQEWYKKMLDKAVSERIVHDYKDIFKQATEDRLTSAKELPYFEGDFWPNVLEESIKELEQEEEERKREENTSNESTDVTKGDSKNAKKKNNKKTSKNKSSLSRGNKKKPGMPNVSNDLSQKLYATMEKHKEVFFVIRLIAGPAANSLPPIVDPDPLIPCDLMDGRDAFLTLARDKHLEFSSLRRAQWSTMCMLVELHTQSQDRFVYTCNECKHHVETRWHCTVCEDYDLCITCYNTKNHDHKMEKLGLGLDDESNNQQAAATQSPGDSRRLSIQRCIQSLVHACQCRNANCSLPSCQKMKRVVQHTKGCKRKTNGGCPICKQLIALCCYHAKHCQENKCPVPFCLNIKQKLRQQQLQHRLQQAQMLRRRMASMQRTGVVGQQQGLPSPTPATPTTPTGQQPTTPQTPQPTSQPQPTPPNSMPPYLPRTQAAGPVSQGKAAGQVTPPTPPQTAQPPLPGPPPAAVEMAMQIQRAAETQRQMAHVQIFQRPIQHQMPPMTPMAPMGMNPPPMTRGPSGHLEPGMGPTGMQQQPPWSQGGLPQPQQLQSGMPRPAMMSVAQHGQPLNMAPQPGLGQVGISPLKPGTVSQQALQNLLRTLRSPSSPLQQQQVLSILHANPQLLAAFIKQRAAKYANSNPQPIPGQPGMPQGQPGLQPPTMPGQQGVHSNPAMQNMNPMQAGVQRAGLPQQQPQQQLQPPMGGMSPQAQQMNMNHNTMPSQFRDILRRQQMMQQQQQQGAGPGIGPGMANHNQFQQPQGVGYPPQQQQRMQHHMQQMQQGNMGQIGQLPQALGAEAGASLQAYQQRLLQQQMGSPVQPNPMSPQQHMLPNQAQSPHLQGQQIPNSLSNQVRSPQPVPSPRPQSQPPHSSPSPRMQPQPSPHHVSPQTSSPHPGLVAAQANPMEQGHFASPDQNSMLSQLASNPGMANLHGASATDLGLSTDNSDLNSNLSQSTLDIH
UniProt Q92793, whole entry: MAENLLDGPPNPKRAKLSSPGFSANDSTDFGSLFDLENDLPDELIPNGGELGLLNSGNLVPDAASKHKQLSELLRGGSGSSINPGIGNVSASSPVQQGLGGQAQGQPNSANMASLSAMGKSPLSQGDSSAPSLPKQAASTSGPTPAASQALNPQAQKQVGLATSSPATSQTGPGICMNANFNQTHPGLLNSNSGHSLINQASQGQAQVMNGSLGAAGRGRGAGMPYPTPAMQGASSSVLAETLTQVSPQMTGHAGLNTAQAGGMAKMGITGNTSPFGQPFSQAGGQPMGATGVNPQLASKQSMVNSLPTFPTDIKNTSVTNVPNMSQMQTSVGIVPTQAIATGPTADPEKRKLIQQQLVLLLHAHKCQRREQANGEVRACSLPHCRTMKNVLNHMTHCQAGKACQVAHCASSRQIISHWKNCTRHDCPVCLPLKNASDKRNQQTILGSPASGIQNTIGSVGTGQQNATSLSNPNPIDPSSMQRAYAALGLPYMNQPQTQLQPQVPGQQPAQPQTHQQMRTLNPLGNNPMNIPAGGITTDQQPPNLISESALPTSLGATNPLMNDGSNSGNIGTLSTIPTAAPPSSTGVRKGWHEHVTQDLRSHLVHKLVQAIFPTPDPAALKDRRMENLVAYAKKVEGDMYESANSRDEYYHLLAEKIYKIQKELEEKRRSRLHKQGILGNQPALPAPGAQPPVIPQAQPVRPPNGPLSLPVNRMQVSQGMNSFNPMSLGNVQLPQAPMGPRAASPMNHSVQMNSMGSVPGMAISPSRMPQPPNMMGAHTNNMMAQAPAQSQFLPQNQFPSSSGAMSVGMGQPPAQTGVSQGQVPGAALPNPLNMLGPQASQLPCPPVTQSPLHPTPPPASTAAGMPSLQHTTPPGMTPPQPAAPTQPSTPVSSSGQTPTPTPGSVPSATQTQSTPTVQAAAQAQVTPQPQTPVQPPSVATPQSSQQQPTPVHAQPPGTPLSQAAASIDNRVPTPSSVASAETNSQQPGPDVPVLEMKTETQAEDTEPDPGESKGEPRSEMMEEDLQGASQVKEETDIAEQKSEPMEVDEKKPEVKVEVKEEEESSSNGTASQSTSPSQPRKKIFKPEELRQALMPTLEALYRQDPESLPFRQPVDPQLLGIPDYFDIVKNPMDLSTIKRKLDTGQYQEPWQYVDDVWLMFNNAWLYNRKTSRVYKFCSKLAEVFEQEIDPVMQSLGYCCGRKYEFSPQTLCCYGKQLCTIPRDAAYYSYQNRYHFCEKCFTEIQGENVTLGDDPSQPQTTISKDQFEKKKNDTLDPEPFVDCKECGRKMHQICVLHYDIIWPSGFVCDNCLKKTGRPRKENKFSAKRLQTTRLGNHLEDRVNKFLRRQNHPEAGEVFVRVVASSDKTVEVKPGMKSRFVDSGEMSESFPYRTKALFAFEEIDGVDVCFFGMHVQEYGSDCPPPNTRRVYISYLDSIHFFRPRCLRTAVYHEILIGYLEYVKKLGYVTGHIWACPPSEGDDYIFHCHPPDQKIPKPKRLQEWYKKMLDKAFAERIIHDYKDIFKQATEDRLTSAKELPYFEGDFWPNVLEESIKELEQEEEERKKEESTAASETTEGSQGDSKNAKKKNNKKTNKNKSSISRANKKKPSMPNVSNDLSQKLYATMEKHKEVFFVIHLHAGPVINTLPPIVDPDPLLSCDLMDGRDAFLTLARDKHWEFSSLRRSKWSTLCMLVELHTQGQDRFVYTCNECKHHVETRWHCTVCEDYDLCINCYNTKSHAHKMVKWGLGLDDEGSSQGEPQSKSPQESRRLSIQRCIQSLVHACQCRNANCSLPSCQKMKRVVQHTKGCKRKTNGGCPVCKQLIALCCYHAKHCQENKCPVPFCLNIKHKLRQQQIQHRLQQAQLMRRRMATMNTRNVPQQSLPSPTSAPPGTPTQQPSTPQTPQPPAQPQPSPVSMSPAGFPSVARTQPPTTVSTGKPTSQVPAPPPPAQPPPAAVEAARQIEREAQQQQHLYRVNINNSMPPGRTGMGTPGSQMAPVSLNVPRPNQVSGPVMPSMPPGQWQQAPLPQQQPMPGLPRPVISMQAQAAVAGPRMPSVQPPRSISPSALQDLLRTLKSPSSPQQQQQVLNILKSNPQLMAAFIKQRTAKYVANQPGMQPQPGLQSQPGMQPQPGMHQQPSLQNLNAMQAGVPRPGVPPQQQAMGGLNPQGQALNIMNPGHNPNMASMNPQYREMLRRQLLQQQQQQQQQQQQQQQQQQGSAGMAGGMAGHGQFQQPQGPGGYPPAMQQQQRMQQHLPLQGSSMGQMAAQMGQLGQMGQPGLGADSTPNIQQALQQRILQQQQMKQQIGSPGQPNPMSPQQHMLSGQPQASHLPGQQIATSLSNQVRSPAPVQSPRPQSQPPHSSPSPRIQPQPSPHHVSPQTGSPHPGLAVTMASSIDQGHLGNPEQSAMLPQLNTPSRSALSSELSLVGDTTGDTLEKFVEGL

Assays:
[1] = biological target: Histone acetyltransferase p300 (Homo sapiens, UniProt Q09472)
[2] = biological target: T1, CREB-binding protein (Homo sapiens, UniProt Q92793)
[3] = biological target: T1, CREB-binding protein; remark: listed apart in the source

## CO[C@H]1CC[C@H](n2c([C@@H]3CCCC(=O)N3c3ccc(F)c(F)c3)nc3cc(-c4c(C)noc4C)ccc32)CC1 [INOBRODIB]
[1]
  pKd: 8.89
[2]
  pIC50: 7.04
[3]
  pKd: 8.77
